Legend:
[1] = target: T1, Metabotropic glutamate receptor 2 (Rattus norvegicus, UniProt P31421); assay: Tested for binding affinity against Metabotropic glutamate receptor 2 in CHO cells using [3H]-7 as radioligand; format: cell-based
[2] = target: T1, Metabotropic glutamate receptor 2; assay: Agonist activity against Metabotropic glutamate receptor 2 expressed in CHO cells was evaluated by measuring forskolin-induced cyclic AMP formation; format: functional, cell-based

Amino acid sequences for entries named in this document (tags omitted). A change or cut given only in a name is not applied to a line headed by its entry.
UniProt P31421: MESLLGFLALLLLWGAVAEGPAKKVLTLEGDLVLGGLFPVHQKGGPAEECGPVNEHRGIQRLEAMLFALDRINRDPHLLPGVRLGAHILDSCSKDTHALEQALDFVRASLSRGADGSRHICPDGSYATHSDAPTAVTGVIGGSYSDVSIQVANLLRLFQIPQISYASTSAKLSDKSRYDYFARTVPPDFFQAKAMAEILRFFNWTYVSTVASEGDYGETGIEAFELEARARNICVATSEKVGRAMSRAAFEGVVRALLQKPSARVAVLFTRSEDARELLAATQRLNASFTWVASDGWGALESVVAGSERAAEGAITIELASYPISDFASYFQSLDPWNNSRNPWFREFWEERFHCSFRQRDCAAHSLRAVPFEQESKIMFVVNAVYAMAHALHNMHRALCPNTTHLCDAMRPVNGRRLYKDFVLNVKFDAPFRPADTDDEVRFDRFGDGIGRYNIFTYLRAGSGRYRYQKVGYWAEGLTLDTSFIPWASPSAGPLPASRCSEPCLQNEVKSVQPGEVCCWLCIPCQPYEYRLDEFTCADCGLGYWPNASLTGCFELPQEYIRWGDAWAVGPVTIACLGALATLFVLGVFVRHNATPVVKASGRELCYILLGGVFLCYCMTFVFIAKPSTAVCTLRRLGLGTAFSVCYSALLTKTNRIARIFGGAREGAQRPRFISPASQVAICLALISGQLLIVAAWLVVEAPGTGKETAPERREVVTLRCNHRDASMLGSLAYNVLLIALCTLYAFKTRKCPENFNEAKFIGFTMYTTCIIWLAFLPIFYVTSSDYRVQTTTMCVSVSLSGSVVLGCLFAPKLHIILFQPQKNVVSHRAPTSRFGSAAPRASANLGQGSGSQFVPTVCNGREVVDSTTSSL

Molecule `N[C@@]1(C(=O)O)CC[C@H]2[C@H](C(=O)O)[C@H]21` has a Ki [1] of 23.4 nM and an EC50 [2] of 18.3 nM.

— ChEMBL document CHEMBL1133557, “Synthesis, SARs, and pharmacological characterization of 2-amino-3 or 6-fluorobicyclo[3.1.0]hexane-2,6-dicarboxylic acid derivatives as potent, selective, and orally active group II metabotropic glutamate receptor agonists” (J Med Chem, 2000)
